# Results published in BindingDB's records for doi:10.1016/j.bmcl.2019.02.028 (Indiana University School of Medicine, 2019).
# Biological target: GroEL/GroES
structure (smiles),measurement,value
CC1=CCC(C(=O)/N=C2\CC=C(S(=O)(=O)O)c3cc(S(=O)(=O)O)cc(S(=O)(=O)O)c32)=C/C1=N/C(=O)C1=CC=C/C(=N\C(=O)/N=C2\C=CC=C(C(=O)/N=C3/CC(C(=O)/N=C4\CC=C(S(=O)(=O)O)c5cc(S(=O)(=O)O)cc(S(=O)(=O)O)c54)=CC=C3C)C2)C1,IC50,16 µM
